Measurements: ChEMBL document CHEMBL3124844 (J Med Chem, 2014)

How the values were obtained:
[1] = system: Sodium-dependent serotonin transporter (Homo sapiens), P31645 [T497A]; conditions: COS-7, 100 uM
[2] = target: Sodium-dependent serotonin transporter (Rattus norvegicus) (UniProt P31652); assay: Displacement of [3H]citalopram from Sprague-Dawley rat brain SERT at 100 uM after 60 mins by liquid scintillation counting analysis relative to control; type: tissue-based
Rattus norvegicus = species: Rattus norvegicus; assay: Displacement of [3H]nisoxetine from Sprague-Dawley rat brain NET at 100 uM after 180 mins by liquid scintillation counting analysis relative to control; type: tissue-based

CNC(=O)CSC(c1ccccc1)c1ccccc1
inhibition [1]: < 50% | inhibition [2]: < 50%

O=C(CSC(c1ccc(Cl)cc1)c1ccc(Cl)cc1)NCCCc1ccccc1
inhibition (Rattus norvegicus): < 50% | inhibition [2]: < 50%

O=C(CSC(c1ccccc1)c1ccccc1)NCCCc1ccccc1
inhibition (Rattus norvegicus): < 50% | inhibition [2]: < 50%
